Among the data in ChEMBL document CHEMBL1145196, “Medicinal chemistry driven approaches toward novel and selective serotonin 5-HT6 receptor ligands” (J Med Chem, 2005) are Activity values, retold here.

Chains of the proteins cited; added tags and fusions are not shown.
UniProt P50406, whole entry: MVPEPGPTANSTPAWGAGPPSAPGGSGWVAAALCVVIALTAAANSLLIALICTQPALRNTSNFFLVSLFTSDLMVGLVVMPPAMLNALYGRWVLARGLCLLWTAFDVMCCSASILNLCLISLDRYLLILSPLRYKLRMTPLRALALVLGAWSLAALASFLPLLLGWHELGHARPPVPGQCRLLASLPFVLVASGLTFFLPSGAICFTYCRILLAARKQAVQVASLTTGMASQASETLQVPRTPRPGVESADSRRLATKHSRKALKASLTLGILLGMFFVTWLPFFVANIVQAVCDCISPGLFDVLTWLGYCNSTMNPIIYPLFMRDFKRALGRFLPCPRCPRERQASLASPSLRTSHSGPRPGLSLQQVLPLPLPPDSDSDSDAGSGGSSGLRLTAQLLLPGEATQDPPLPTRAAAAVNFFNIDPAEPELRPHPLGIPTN

One test concerns the target T1, 5-hydroxytryptamine receptor 6 (Homo sapiens, UniProt P50406). As to the kind of experiment: Antagonist activity against cAMP accumulation in C6 cells expressing 5-hydroxytryptamine 6 receptor. Format: functional, cell-based. The note with it: Rattus norvegicus, filed as antagonist. The essentials: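 C6 cells detached with trypsin 2 h before assay, seeded ~50 000 cells/well. Compounds added with or without forskolin for 30 min. Data are means of at least three separate experiments.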
(In general: Cyclic AMP is a second messenger, typically raised through Gs and lowered through Gi signalling.)
For `CCN(CC)CCc1c[nH]c2ccc(NS(=O)(=O)c3ccc4ccccc4c3)cc12`, the Activity entry was “Antagonist”. Consider `CN1CCC(c2c[nH]c3ccc(NS(=O)(=O)c4cccc5cccnc45)cc23)CC1`, for which the Activity entry is “Antagonist”. Take `CN1CCC(c2c[nH]c3ccc(NS(=O)(=O)c4ccc(-c5ccccc5)cc4)cc23)CC1`: the Activity result was “Antagonist”. Same read-out and setting: the entry for `Cc1cccc2c1N(C1CCN(S(=O)(=O)c3cccc4ccccc34)CC1)C(=O)OC2` is “Antagonist”; for `CN(C)CCn1ccc2cc(NS(=O)(=O)c3cccc4ccccc34)ccc21` it is “Antagonist”.

The next test concerns the target T1, 5-hydroxytryptamine receptor 6. The test is described as follows: Agonist activity against cAMP accumulation in C6 cells expressing 5-hydroxytryptamine 6 receptor. Type of test: functional, cell-based. Particulars: Rattus norvegicus, filed as agonist.
On to `CCN(CC)CCc1c[nH]c2ccc(NS(=O)(=O)c3ccc4ccccc4c3)cc12`, for which the Activity entry is “Agonist”. Still for that read-out and setting: under `CCN(CC)CCc1c[nH]c2ccc(NS(=O)(=O)c3cccc4ccccc34)cc12` stands “Agonist”.
